Patent US6835371B1 (priority 1997, dated 2004)

Protein sequences, listed by entry. Tags and fused reporters are not part of them.
UniProt P31645, whole entry: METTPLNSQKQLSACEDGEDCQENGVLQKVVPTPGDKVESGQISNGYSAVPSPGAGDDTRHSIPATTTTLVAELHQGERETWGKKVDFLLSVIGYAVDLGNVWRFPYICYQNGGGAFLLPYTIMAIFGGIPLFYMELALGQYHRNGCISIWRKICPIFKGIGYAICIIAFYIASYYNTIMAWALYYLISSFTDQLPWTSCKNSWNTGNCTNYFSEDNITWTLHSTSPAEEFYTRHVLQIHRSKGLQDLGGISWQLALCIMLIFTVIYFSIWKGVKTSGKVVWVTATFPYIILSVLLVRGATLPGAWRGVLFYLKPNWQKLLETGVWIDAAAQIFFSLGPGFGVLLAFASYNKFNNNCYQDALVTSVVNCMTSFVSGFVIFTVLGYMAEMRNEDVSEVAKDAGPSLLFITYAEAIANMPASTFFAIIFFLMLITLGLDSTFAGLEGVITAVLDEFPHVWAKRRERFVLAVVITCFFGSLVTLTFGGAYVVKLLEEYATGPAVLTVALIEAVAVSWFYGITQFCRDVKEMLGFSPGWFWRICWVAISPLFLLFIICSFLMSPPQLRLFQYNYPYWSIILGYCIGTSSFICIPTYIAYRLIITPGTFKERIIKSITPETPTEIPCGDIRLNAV

Experiments:
[1] = biological target: T1, human serotonin transporter (hSERT) (Homo sapiens, UniProt P31645); settings: for Ki: read-out: [125I]RTI-55 binding Ki, SERT
[2] = biological target: T1, human serotonin transporter (hSERT); test: biochemical
[3] = biological target: T1, human serotonin transporter (hSERT); test: cell-based; type: cell-based; settings: for IC50: read-out: [3H]Serotonin Uptake IC50

SMILES	Hill coefficient [1]	Ki [1]	Ki ([2]; [125I]RTI-55 binding Ki, SERT) [nM]	other results
Fc1ccc(C(OCCCCN2CCN(c3ccccc3Cl)CC2)c2ccc(F)cc2)cc1 [Compound 31626]	−0.89 ± 0.06	88 nM		
O=c1[nH]c2ccccc2n1C1CCN(CCCCOC(c2ccc(F)cc2)c2ccc(F)cc2)CC1 [Compound 31649]	−0.55 ± 0.06	3.8 nM		
Fc1ccc(C(OCCCCN2CCN(c3ccc(F)cc3)CC2)c2ccc(F)cc2)cc1 [Compound 31527]	−0.98 ± 0.08		34	
Fc1ccc(C(OCCCCN2CCN(c3ccccc3F)CC2)c2ccc(F)cc2)cc1 [Compound 31526]	−1.12 ± 0.04		30	
COc1ccccc1N1CCN(CCCCOC(c2ccc(F)cc2)c2ccc(F)cc2)CC1 [Compound 31654]	−1.16 ± 0.18	255 nM		IC50 ([3]; HEK-hSERT cells): 1.23 ± 0.024 µM
Fc1ccc(C(OCCCCN2CCN(c3ccccc3)CC2)c2ccc(F)cc2)cc1 [Compound 31653]	−0.81 ± 0.05		51	
OC1CCCN(CCCCOC(c2ccc(F)cc2)c2ccc(F)cc2)C1 (stereo not shown) [Compound 31650]	−0.75 ± 0.12	> 437 nM and 437 nM		IC50 ([3]; HEK-hSERT cells): 0.86 µM
O=C1c2ccccc2C(=O)N1CCCCN1CCC(O)(c2ccc(Br)cc2)CC1 [Compound 31627]	−1.01 ± 0.08			
OC1CCN(CCCCOC(c2ccc(F)cc2)c2ccc(F)cc2)CC1 [Compound 31648]	−0.95 ± 0.07	423 nM		
Fc1ccc(C(OCCCCN2CCN(c3cccc(C(F)(F)F)c3)CC2)c2ccc(F)cc2)cc1 [Compound 31532]	−0.80 ± 0.03		222	
OC1(c2ccc(Br)cc2)CCN(CCCCOC(c2ccc(F)cc2)c2ccc(F)cc2)CC1 [Compound 31530]	−0.74 ± 0.10		38	Ki [2]: 1500 nM
CC(=O)C1(c2ccccc2)CCN(CCCCOC(c2ccc(F)cc2)c2ccc(F)cc2)CC1 [Compound 31525]	−0.75 ± 0.05			
OC1(c2ccccc2)CCN(CCCCOC(c2ccc(F)cc2)c2ccc(F)cc2)CC1 [Compound 31531]	−0.64 ± 0.07		17.9	
NC(=O)C1CCCN(CCCCOC(c2ccc(F)cc2)c2ccc(F)cc2)C1 (stereo not shown) [Compound 31628]	−0.84 ± 0.02	132 nM		
O=C1CN(CCCCOC(c2ccc(F)cc2)c2ccc(F)cc2)CCN1 [Compound 31524]	−0.80 ± 0.09	1800 nM		Ki ([3]; Table 2, read-out: Reuptake [3H]5-HT (Ki ± SD)): 1800 ± 450 nM
Fc1ccc(C(OCCCCN2CCN(c3cccc(Cl)c3)CC2)c2ccc(F)cc2)cc1 [Compound 31651]				Ki [2]: 148 ± 62 nM; IC50 [3]: 0.92 ± 0.42 µM
OC1(c2ccc(Cl)cc2)CCN(CCCCOC(c2ccc(F)cc2)c2ccc(F)cc2)CC1 [Compound 31625]				IC50 ([3]; HEK-hSERT cells, in μM): ≥ 10 µM
Fc1ccc(C(OCCCCN2CCN(c3ccc(Cl)cc3)CC2)c2ccc(F)cc2)cc1 [Compound 31652]	−0.81 ± 0.06		33	

Several values for one entry are separate records, joined by “and”; a condition that tells them apart may be missing. Identical values can stand only once. Like-named read-outs stand apart in the source and are kept apart here.
